Test system: fibroblast cell culture

Substance | IC50 [mM] (TC50 values of various monomers)
poly(ethylene glycol-600) diacetic acid divinyl ester [PEG600DVE] | 0.63
poly(ethylene glycol-250)diacetic acid divinyl ester [PEG250DVE] | 0.63

From patent publication US9814801B2, “Thiol-ene polymerization with vinylesters and vinylcarbonate” (Depuy Synthes Products, Inc., priority 2011, dated 2017)
